Tested on: ventricular reentry arrhytmias
Experiment: Ventricular reentry arrhythmias in dogs after coronary artery occlusion
Format: in vivo
Experimental: Three dogs were studied in the anesthetized, open chest state to facilitate electrode placement for mapping. α-chloralose was given as a bolus (200 mg/kg) and then a constant Infusion at 8 mg/kg/hr (dissolved in polyethylene glycol, MW=200). The femoral vein and artery was cannulated for administration of fluid and drugs and for measurement of ascending aortic pressure, respectively.
The sinus node was clamped and the atrial appendage was paced with a programmable stimulator with constant current outputs at two times diastolic threshold. Pacing rate was ≥200 b/min to control heart rates. Ventricular pacing one pole of a multipolar needle in the normal zone employed an anode (7 cm^2 stainless steel) in the abdominal muscle. Endocardial Effective Refractory Period (ERP) was measured by the standard extrastimulus technique. Late ventricular diastolic threshold was measured during each intervention; the pacing current was four times threshold.
Test sites were chosen along the shaft of 16 pole needles (J. Kassell, Fayetteville, NC); each pole completely surrounds the needle shaft to prevent directionality of needle orientation from recording of adjacent Purkinje strands. Six bipolar electrograms (1 mm spacing) were recorded sequentially down the shaft of the needle by amplifying up to 1000 times, filtering from 3-1300 Hz and recording via oscilloscope during atrial pacing. Four intramural electrograms are recorded on each multipolar needle. Epicardial electrograms are activated latest on each needle. […] Inter-needle distance measured on epicardium varies over 6-10 mm in dogs weighing 12-16 kg.
The endocardium was paced at the base, apical septum and lateral free wall just outside the risk zone. After ERP was determined, the S1-S2 interval was prolonged by 4 msec > ERP and a S3 was added to the protocol initially with an S2-S3 interval equal to 50 msec > S1-S2. […] Normal cardiac muscle ERP was recorded with each intervention. […]

“Ac-D-Tyr-D-Pro-D-4Hyp-Gly-D-Ala-Gly-NH2 [Compound 2]” was tested, and the Effective refractory period (first dog, after the lowest dose (control 150 msec)) was 154 ms, the Effective refractory period (first dog, at the highest and last dose (control 150 msec)) was 148 ms and the Effective refractory period (second dog, first site of induction (lateral), throughout the testing period) was 163 ms.

— EP1370276B1, “INTERCELLULAR COMMUNICATION FACILITATING COMPOUNDS AND THEIR MEDICAL USE” (Zealand Pharma A/S, priority 2001, dated 2002)
